System: Cetuximab
Experiment: Cetuximab conjugation, anti-biotin Western blot
Conditions: for modification without prior reduction of the disulfide bonds with DTT: non-reduced antibody

C=CP(=O)(OCC)SCCCCC[C@@H]1SC[C@@H]2NC(=O)N[C@@H]21 (some centres unmarked)
modification of the antibody fragments (heavy and light chain) (antibody reduced with DTT, pH=7.4 (lane 3) and pH=8.5 (lane 5)): could be confirmed
modification without prior reduction of the disulfide bonds with DTT: no modification could be detected
labelling of the antibody in dependence of pH (reduced antibody, pH 7.4 to 8.5): higher for higher pH=8.5

biotin-maleimide
modification without prior reduction of the disulfide bonds with DTT: modification detected
degree of modification compared to the PT (reduced antibody, pH=7.4, lane 1 vs lane 3): higher compared to the PT

— US12453779B2, “Chemoselective thiol-conjugation with alkene or alkyne-phosphonothiolates and -phosphonates” (FORSCHUNGSVERBUND BERLIN E.V., priority 2018, dated 2025)
